Laboratory results: PMC5802374 (Cell, 2018)

Chains of the proteins cited; added tags and fusions are not shown.
UniProt P41145, whole entry Y312W: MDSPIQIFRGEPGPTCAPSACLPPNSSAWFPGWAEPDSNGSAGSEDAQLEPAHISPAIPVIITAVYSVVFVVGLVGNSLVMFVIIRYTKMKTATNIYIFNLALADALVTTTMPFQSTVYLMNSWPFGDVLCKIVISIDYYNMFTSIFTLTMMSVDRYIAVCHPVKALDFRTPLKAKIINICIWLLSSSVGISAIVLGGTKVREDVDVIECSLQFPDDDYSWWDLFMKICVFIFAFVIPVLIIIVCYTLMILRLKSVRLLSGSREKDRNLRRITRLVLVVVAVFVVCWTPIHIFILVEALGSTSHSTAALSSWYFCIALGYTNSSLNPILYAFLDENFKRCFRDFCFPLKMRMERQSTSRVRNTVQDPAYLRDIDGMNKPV

Target: KOP Y312^7.35W (Homo sapiens, UniProt P41145, Y312W)
Settings: N = 3

O=C(N[C@@H]1CC[C@@]2(O)[C@H]3Cc4ccc(O)c5c4[C@@]2(CCN3CC2CC2)[C@H]1O5)c1cccc(I)c1 [IBNtxA]
Emax arrestin recruitment in KOP Y312^7.35W: 52±4
EC50 (read-out: EC50 arrestin recruitment in KOP Y312^7.35W): 0.2 ± 0.06 nM
